Data taken from PubChem BioAssay (Tox21).
“And” between values parts separate entries of the source, which are not always exact repeats. Equal entries are not always repeated. The list shows a part of the results, in another mix than the full data. The source made the active and inactive calls. The call rests on the fitted dose curve; in most records, active means well fitted activation curve with a large enough effect in the repeat runs; inconclusive means weak or mixed curves; inactive means flat fitted curve, though single readings scatter.

Assay: Caspase-3/7 induction in CHO-K1 cells by small molecules, qHTS assay (AID 1346980); further: nearly all actives have a fitted effect of over 15% in size
Conditions: CHO-K1 caspase-3/7 induction, Caspase-Glo luminescence, 17 h; at 42.5 µM (top of the series)
Text: National Center for Advancing Translational Sciences [NCATS]
NIH Chemical Genomics Center [NCGC]
U.S. Environmental Protection Agency [EPA]
National Institutes of Environmental Health Sciences [NIEHS]
National Toxicology Program [NTP]
Apoptosis is a process of programmed cell death and plays a central role in the development of multicellular organisms. It is a highly regulated process and induces cell death by activating caspases, which are the members of cysteine aspartic acid-specific protease (caspase) family. Caspases involved in apoptosis are classified by their mechanism of action as initiator caspases (caspase-2, -8, -9 and -10) and executioner caspases (caspase-3, -6, and -7). Inhibition of apoptosis results in number of cancers, autoimmune diseases, inflammatory diseases and viral infection. To identify small molecule compounds that induce apoptosis, a homogeneous, luminescent Caspase-Glo 3/7 assay was used. Wild type CHO-K1 cells were used to screen Tox21 libraries for identifying caspase-3/7 activity inducers.
CHO-K1 cells were dispensed at 1,500 per well in 5uL of culture medium into white solid bottom 1536-well plates (Corning Life Sciences, Corning, NY) using a Multidrop Combi (Thermo Scientific, Waltham, MA) dispenser. The assay plates were incubated at 37 C and 5% CO2 for 5hr, and then 23nL of compounds dissolved in DMSO and positive control were transferred using a Pintool station (Wako, San Diego, CA). The assay plates were incubated at 37C and 5% CO2 for 17hr. For caspase-3/7 activity read, 4uL of Caspase-Glo 3/7 reagent (Promega Corporation, Madison, WI) was added to each well of the assay plates using Flying Reagent Dispenser (FRD, Aurora Discovery, San Diego, CA) and incubated the assay plates at room temperature for 30min. The luminescence signal was quantified using a ViewLux plate reader (Perkin Elmer, Shelton, CT).
On the % scale 0 is the no-effect control and ±100 the full control effect.

Row | Structure (SMILES) | caspase-3/7 activation
1 | NC(=O)Nc1ccc([As](=O)(O)O)cc1 | inactive: -1.01%

Same assay, conditions: CHO-K1 caspase-3/7 induction, Caspase-Glo luminescence, 17 h; at 92.4 µM (top of the series)

Row | Structure (SMILES) | caspase-3/7 activation
2 | NC(=O)Nc1ccc([As](=O)(O)O)cc1 | inactive: 0.859%

Same assay, conditions: CHO-K1 caspase-3/7 induction, Caspase-Glo luminescence, 17 h; at 92.4 µM (top of the series) unless noted

Row | Structure (SMILES) | caspase-3/7 activation
3 | CCNC(C)Cc1ccc2c(c1)OCO2 (stereo not given) | inactive: -0.0158%
4 | CCOP(=S)(CC)Sc1ccccc1 (stereo not given) | inactive: -0.0111%
5 | ClP(Cl)c1ccccc1 | inactive: 1.64%
6 | O=[p+]1oc2ccccc2c2ccccc21 (stereo not given) | inactive: 1.29%
7 | O=[N+]([O-])c1ccc([N+](=O)[O-])cc1 | inactive: 3.33%
8 | O=[P+](Oc1ccccc1)Oc1ccccc1 | inactive: 0.574%
9 | CC(C)CCCCCCCOP(OCCCCCCCC(C)C)Oc1ccccc1 | inactive: 0.946%
10 | CN(N=O)C(=N)N[N+](=O)[O-] | inactive: -1.53%
11 | CCCCO[P+](=O)OCCCC | inactive: -0.21% and inactive: -1.83%
12 | CN(C(=O)Cc1cccc2occc12)[C@H]1CC[C@@]2(CCCO2)C[C@@H]1N1CCCC1 | inactive: 0.273%
13 | CCCCC(CC)CO[P+](=O)OCC(CC)CCCC (stereo not given) | inactive: -0.731%
14 | O=C(Cl)OCCOC(=O)Cl | inactive: 0.483%
15 | Cc1cc([N+](=O)[O-])c(O)c([N+](=O)[O-])c1 | inactive: 1.36%
16 | COP(=S)(Cl)OC | inactive: -0.851%
17 | N#CSc1ccc([N+](=O)[O-])cc1[N+](=O)[O-] | inactive: -6.7%
18 | COC(=O)Cl | inactive: 1.31%
19 | CC(C)OP(=S)(OC(C)C)SCCNS(=O)(=O)c1ccccc1 | inactive: -1.23%
20 | O=C(Cl)Oc1ccccc1 | inactive: -0.715%
21 | CCCCOP(OCCCC)OCCCC | inactive: -0.0335%
22 | O=P(Cl)(Oc1ccccc1)Oc1ccccc1 | inactive: 0.37%
23 | CN(C(=O)Cc1ccccc1)[C@H]1CC[C@@]2(CCCO2)C[C@@H]1N1CCCC1 | inactive: -0.0337% [at 42.5 µM]
24 | Cc1cc([N+](=O)[O-])cc([N+](=O)[O-])c1O | inactive: -4.08% and inactive: -5.1%
25 | CCOC(=O)Cl | inactive: -0.213%
26 | CN(C(=O)Cc1ccc(Cl)c(Cl)c1)[C@H]1CC[C@@]2(CCCO2)C[C@@H]1N1CCCC1 | inactive: -0.809% [at 42.5 µM]
27 | O=[As]c1ccccc1 (stereo not given) | inactive: -6.07%
28 | O=P(Cl)(Cl)c1ccccc1 | inactive: 0.049%
29 | CCC(C)(OOC(C)(C)C)OOC(C)(C)C | inactive: -1.34% [at 19 µM]
30 | O=[N+]([O-])c1ccc(S(=O)(=O)O)c([N+](=O)[O-])c1 | inactive: -1.43%
